pIC50: −log10 of the molar value.
What was measured:
[1] = target: His tagged PTPN2 (TC45) protein (Homo sapiens, UniProt P17706); assay: Mobility shift assay (MSA) for potency of PTPN2 inhibitors; settings: read-out: PTPN2 MSA IC50
[2] = target: His tagged full-length PTP1B protein (Homo sapiens, UniProt P18031); assay: Mobility shift assay (MSA) for potency of PTP1B inhibitors; type: biochemical; settings: read-out: PTP1B MSA IC50
[3] = system: B16F10 mouse melanoma cells; assay: B16F10 IFNγ-induced cellular growth inhibition assay; settings: 33 μM compound; for % B16F10 growth inhibition (+0.5 ng/mL IFNγ) @ 33 μM: relative to DMSO control

Chains of the proteins cited; added tags and fusions are not shown. A line that says so, or that is headed by a name, gives the form on record, which may keep a tag or linker. Residues count along the entry.
UniProt P17706, 1-387 with tags or gaps isoform 2: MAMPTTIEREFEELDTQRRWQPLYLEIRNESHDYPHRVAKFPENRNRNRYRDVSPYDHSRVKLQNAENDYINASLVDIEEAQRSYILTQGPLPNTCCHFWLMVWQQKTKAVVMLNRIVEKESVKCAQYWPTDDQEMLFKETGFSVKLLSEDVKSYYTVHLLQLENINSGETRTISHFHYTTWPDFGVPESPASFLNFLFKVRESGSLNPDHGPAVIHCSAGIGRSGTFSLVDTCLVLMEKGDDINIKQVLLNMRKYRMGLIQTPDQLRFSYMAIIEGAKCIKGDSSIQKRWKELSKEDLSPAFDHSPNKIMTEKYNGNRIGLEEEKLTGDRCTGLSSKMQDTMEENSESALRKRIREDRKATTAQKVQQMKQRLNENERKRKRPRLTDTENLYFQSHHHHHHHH
UniProt P18031, 1-321 with tags or gaps: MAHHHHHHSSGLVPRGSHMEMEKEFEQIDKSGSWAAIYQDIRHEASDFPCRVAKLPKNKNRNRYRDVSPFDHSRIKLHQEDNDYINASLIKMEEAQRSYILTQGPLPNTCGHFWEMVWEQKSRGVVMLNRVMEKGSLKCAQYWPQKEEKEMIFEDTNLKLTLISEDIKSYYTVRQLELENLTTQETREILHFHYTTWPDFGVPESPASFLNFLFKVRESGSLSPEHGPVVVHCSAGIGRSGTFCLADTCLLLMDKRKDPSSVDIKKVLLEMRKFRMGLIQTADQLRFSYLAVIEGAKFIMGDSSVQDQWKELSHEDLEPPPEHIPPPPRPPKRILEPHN

pIC50 [2]	SMILES	pIC50 [1]	% B16F10 growth inhibition (+0.5 ng/mL IFNγ) @ 33 μM [3]	% B16F10 growth inhibition (no IFNγ) @ 33 μM [3]
< 7.00	N#CC1(COc2ccc3cc(O)c(N4CC(=O)NS4(=O)=O)c(F)c3c2)CC1	8.00 to 9.00	–	–
8.00 to 9.00	CC(C)(O)CCCc1ccc2cc(O)c(N3CC(=O)NS3(=O)=O)c(F)c2c1	> 9.00	B (a percent growth inhibition of 60-90%)	D (a percent growth inhibition of <25%)
7.00 to 8.00	O=C1CN(c2c(O)cc3ccc(CC4CCN(S(=O)(=O)C5CC5)CC4)cc3c2F)S(=O)(=O)N1	8.00 to 9.00	C (a percent growth inhibition of 25-59%)	D (a percent growth inhibition of <25%)

Source: patent publication US20210009542A1 (Calico Life Sciences LLC, priority 2018, published 2021)
